Data taken from patent US20130203659A1 (priority 2006, published 2013).

The chains behind the UniProt entries cited, without tags or fusion partners. Residues count along the entry.
UniProt P43220, 24-463: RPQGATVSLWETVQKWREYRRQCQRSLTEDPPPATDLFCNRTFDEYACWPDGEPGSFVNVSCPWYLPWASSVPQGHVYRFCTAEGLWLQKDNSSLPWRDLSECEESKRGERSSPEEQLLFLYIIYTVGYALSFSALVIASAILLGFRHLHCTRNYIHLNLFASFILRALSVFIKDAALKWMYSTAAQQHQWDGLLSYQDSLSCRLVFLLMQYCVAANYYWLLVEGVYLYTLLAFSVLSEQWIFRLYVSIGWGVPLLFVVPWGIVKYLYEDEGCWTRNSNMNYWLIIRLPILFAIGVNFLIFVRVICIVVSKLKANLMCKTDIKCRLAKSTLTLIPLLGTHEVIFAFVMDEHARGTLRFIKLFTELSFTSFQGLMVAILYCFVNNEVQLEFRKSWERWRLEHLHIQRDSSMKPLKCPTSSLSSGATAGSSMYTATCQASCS

Biological target: T1, human GLP-1 receptor (Homo sapiens, UniProt P43220)
T1 construct: expressed in transfected cells; host or cells: CHOK1 cells with a cAMP-regulated luciferase reporter construct
Assay: GLP-1R reporter assay (cAMP-regulated luciferase, CHOK1 cells), human receptor
Type: cell-based
Method: A. GLP-1R Reporter Assay:
Increased cAMP levels were measured through enhanced expression of a luciferase reporter gene. […] The evening prior to assay, the cells were washed, the medium replaced with serum-free medium containing 0.5% protease-free bovine serum albumin (BSA), and then cultured overnight. […] Cell lysates were assayed for luciferase activity using the Luciferase Assay System (Promega Corporation, Madison, Wis.). Luciferase activity was measured using a Luminoskan Ascent (Thermo Electron Corporation, Marietta, Ohio). Nonlinear regression analyses of resultant compound concentration curves were performed using GraphPad Prism (GraphPad Software, Inc., San Diego, Calif.).

CC[C@H](C)[C@H](NC(=O)[C@H](Cc1ccccc1)NC(=O)[C@H](CCC(=O)O)NC(=O)[C@H](CCCCN)NC(=O)[C@@H]1CCCCNC(=O)CC[C@H](NC(=O)[C@H](CC(C)C)NC(=O)[C@H](Cc2ccc(O)cc2)NC(=O)[C@H](CO)NC(=O)[C@H](CO)NC(=O)[C@@H](NC(=O)[C@H](CC(=O)O)NC(=O)[C@H](CO)NC(=O)[C@@H](NC(=O)[C@H](Cc2ccccc2)NC(=O)[C@@H](NC(=O)CNC(=O)[C@H](CCC(=O)O)NC(=O)CNC(=O)[C@@H](N)Cc2c[nH]cn2)[C@@H](C)O)[C@@H](C)O)C(C)C)C(=O)NCC(=O)N[C@@H](CCC(N)=O)C(=O)N[C@@H](C)C(=O)N1)C(=O)N[C@@H](C)C(=O)N[C@@H](Cc1c[nH]c2ccccc12)C(=O)N[C@@H](CC(C)C)C(=O)N[C@H](C(=O)N[C@@H](CCCCN)C(=O)NCC(=O)N[C@@H](CCCNC(=N)N)C(=O)NCC(N)=O)C(C)C [[Gly8]GLP1(7-37) cyc[Glu15-Lys19], HGEGTFTSDVSSYLEGQAKKEFIAWLVKGRG AMIDE]
EC50: 0.15 nM

CC[C@H](C)[C@H](NC(=O)[C@@H]1CCCCNC(=O)CC[C@H](NC(=O)[C@H](CCC(N)=O)NC(=O)CNC(=O)[C@H](CCC(=O)O)NC(=O)[C@H](CC(C)C)NC(=O)[C@H](Cc2ccc(O)cc2)NC(=O)[C@H](CO)NC(=O)[C@H](CO)NC(=O)[C@@H](NC(=O)[C@H](CC(=O)O)NC(=O)[C@H](CO)NC(=O)[C@@H](NC(=O)[C@H](Cc2ccccc2)NC(=O)[C@@H](NC(=O)CNC(=O)[C@H](CCC(=O)O)NC(=O)CNC(=O)[C@@H](N)Cc2c[nH]cn2)[C@@H](C)O)[C@@H](C)O)C(C)C)C(=O)N[C@@H](C)C(=O)N[C@@H](CCCCN)C(=O)N[C@@H](CCC(=O)O)C(=O)N1)C(=O)N[C@@H](C)C(=O)N[C@@H](Cc1c[nH]c2ccccc12)C(=O)N[C@@H](CC(C)C)C(=O)N[C@H](C(=O)N[C@@H](CCCCN)C(=O)NCC(=O)N[C@@H](CCCNC(=N)N)C(=O)NCC(N)=O)C(C)C [[Gly8]GLP1(7-37) cyclo[Glu18-Lys22], HGEGTFTSDVSSYLEGQEAKEKIAWLVKGRG AMIDE]
EC50: 0.8 nM
